The source of these data is patent US5234944A (priority 1986, dated 1993).

Protein sequences, listed by entry. Tags and fused reporters are not part of them. Lines headed by an entry give the natural chain unless they say otherwise; changes in a name come on top.
UniProt P41144: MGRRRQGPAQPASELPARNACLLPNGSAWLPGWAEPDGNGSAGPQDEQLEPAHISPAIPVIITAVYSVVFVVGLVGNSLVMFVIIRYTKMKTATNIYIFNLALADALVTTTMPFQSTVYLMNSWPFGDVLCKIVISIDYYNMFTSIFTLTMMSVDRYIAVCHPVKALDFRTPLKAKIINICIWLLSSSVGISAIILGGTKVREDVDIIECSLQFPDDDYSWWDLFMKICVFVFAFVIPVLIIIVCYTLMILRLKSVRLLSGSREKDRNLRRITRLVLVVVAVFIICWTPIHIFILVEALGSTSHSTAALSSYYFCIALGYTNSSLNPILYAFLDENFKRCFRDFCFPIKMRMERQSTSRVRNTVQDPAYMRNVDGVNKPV

Structures are written as SMILES.

The nature of test [1]: Analgesic activity (copper plate at 56° C., licking of front paws). Particulars: female mice; oral; 56° C. plate; 30 minutes after the treatment.
The target of another test is opiated receptor K (Cavia porcellus, UniProt P41144). Briefly: Liaison with the opiated receptor K in vitro (displacement of 3H ethylketocyclazocine). It counts as binding. Particulars: read-out: 50% inhibiting concentration (IC50); guinea-pig cerebella membranes; 3H ethylketocyclazocine 1 nM; Tris pH 7.7; 25° C., 40 minutes. (In general: Displacement assays read how much labelled ligand stays bound in the presence of the test substance.)

The nature of test [2]: Hypotensive activity on the anaesthetized rat. Particulars: injected into jugular vein. The test is classed as in vivo, rat (Sprague Dawley).
A short description of test [3]: Anti-arrythmic activity in the rat (aconitine). It counts as in vivo. The note with it: intravenous, aconitine 5 minutes after.
A short description of test [4]: Measurement of the diuretic activity. The test is classed as in vivo, rat (Sprague Dawley). Particulars: dose 10 mg/kg; oral; t1h-t5h. The protocol:
4) Measurement of the diuretic activity
Male rats of Sprague Dawley strain weighing 180 to 200 g were not fed for 17 hours before the test, but received water ad libitum. Groups of 8 animals were set up for each dose tested and the rats received the product under test or its vehicle orally. The urinary volume was measured every hour for the 5 hours following the administration of the product. At the end of this period, the urines were collected and the activity of the product was expressed as a percentage of variation calculated on the urinary volume corresponding to the period t1h -t5h.

Consider `CN(C(=O)Cc1ccc(Cl)c(Cl)c1)[C@@H]1c2ccccc2C[C@H]1N1CCCC1` (relative stereo), for which the “AD100, dose which increased the reaction time by 100%” value in test [1] was determined as 50 mg/kg. Besides, the IC50 at opiated receptor K was 1.8 nM. The “variation of arterial pressure, 5 min. after administration” value is recorded as -19% in test [2] (dose 1 mg/kg) and -13% in test [2] (dose 10 mg/kg). In addition, the “variation of arterial pressure, 30 min. after administration” value is reported as -23% in test [2] (dose 1 mg/kg) and -19% in test [2] (dose 10 mg/kg). The “percentage of extension of time of appearance of disturbances of the cardiac rhythm” value (shortened to “percentage of extension … of the cardiac rhythm”) in test [3] (dose 5 mg/kg) was “+20.6%”; in test [3] (dose 10 mg/kg), “+31.4%”.
On to `CN(C(=O)Cc1cccc([N+](=O)[O-])c1)[C@@H]1c2ccccc2C[C@H]1N1CCCC1` (relative stereo), for which, on opiated receptor K, the IC50 turned out to be 2.7 nM. In addition, in test [2] (dose 10 mg/kg), the “variation of arterial pressure, 5 min. after administration” value is on record as -32% and the “variation of arterial pressure, 30 min. after administration” value is on record as -31%. In addition, the “percentage of variation of the urinary volume” value in test [4] is “+74%”. Besides, the “percentage of extension … of the cardiac rhythm” value in test [3] (dose 5 mg/kg) is recorded as “+32%”. In addition, the “percentage of extension … of the cardiac rhythm” value in test [3] (dose 10 mg/kg) is recorded as “+34.6%”.
